Target: T1, C-X-C chemokine receptor type 3 (Homo sapiens, UniProt P49682)
T1 sequence (P49682 whole entry): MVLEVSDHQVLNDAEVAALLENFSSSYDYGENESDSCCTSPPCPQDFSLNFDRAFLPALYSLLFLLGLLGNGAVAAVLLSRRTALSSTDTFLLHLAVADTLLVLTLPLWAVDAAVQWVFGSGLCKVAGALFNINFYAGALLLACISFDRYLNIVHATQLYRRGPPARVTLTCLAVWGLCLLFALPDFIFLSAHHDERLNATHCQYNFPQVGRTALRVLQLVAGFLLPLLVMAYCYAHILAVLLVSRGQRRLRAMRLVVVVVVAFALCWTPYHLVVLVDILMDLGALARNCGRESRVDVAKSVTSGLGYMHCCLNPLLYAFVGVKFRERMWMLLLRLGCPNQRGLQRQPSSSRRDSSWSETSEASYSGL
Assay: Antagonist activity at human CXCR3 expressed in CHO cells assessed as inhibition of ITAC-stimulated [35S]GTPgammaS binding pretreated 30 mins before ITAC challenge
Format: functional, cell-based
Procedure, shortened: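 Membranes from stably hCXCR3-expressing CHO cells in 20 mM Hepes, 100 mM NaCl, 3 µM GDP, 1 mM MgCl2, 14 µg/ml saponin, pH 7.4. Pre-incubated with compound for 30 min at 30 °C, then stimulated with human ITAC (3 nM) or IP-10 (150 nM).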

IC50: 330 nM
Structure (SMILES): CCOc1ccc(-n2c([C@@H](C)N(Cc3cccnc3)C(=O)Cc3ccc(OC(F)(F)F)cc3)nc3ncccc3c2=O)cc1

— ChEMBL document CHEMBL1139391, “Synthesis and structure-activity relationship of benzetimide derivatives as human CXCR3 antagonists” (Bioorg Med Chem Lett, 2008)
